Experiments:
[1] = molecular target: GFP-PTB1 + 2 S237A (human) (UniProt Q86TI0); assay: co-IP; GFP-trap from lysates of lentivirally transduced C2C12 myotubes in precipitation buffer, western blot; some cells serum starved and treated with vehicle or AICAR (2 mM)
[2] = molecular target: full-length GFP-tagged TBC1D1 (human) (UniProt Q86TI0); assay: as above

By UniProt entry, the sequences of proteins in these tests, tags left out. Where a name states a change or a piece, a line headed by the entry shows the natural chain unless it says otherwise. Residues count along the entry.
UniProt Q86TI0, 1-381 S237A: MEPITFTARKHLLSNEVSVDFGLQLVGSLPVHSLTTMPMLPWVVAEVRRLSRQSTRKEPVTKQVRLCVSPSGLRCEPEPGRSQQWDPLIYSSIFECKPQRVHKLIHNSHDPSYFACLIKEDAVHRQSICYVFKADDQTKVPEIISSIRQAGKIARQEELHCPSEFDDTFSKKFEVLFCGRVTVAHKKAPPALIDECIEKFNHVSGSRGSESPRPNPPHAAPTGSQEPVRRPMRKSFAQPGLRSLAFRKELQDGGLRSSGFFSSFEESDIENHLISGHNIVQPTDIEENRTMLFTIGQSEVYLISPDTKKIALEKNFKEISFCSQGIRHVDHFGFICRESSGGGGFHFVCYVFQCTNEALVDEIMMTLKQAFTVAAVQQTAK
UniProt Q5EG47: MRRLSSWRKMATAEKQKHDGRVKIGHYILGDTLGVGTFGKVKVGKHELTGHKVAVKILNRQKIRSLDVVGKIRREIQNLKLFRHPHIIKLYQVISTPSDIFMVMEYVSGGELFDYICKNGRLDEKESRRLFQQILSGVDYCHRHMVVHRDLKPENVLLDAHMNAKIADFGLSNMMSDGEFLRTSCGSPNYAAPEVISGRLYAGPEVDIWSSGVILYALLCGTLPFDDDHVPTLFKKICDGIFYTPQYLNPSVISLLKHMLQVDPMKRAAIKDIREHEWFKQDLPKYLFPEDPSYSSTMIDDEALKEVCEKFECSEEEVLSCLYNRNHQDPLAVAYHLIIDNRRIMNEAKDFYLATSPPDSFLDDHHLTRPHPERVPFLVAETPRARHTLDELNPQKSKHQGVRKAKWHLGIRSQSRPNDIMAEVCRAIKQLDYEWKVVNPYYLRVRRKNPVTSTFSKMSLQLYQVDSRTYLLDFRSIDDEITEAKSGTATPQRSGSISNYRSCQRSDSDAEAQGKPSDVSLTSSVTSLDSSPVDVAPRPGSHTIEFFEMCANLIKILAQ

Question: Which results are given for “AMPK heterotrimers containing the α1 subunit (endogenous, C2C12 myotubes) (from UniProt Q5EG47 1-559; Q9R078 1-270; O54950 1-330) (complex)”?
Answer: percent inhibition of AMPK binding against GFP-PTB1 + 2 [1]: 42%; fold increase in binding with AICAR over basal [2]: 4 fold
